Entries after “also recorded” stand apart in the source; their conditions may differ.
Legend:
SW480 cells [1] = experiment: Cytokinetic studies (cell cycle distribution by flow cytometry), SW480; format: cell-based, human; settings: data not shown
HT-29 cells [2] = experiment: Clonogenic assay (cell kill / cloning efficiency), HT-29; format: cell-based, human; settings: alpha-2a-interferon alone
HT-29 cells [3] = experiment: Cytokinetic studies (cell cycle distribution by flow cytometry), HT-29; format: cell-based, human; settings: alpha-2a-interferon alone
SW480 cells [4] = experiment: Clonogenic assay (cell kill / cloning efficiency), SW480; format: cell-based, human; settings: alpha-2a-interferon alone

In the case of “alpha-2a-interferon: recombinant alpha-2a-interferon”, the “effect on cell cycle versus HT-29” value (SW480 cells [1]; 5-fluorouracil and alpha-2a-interferon alone or in combination) is reported as “qualitatively identical effects”, the “prolongation of the block in G0/G1” value (SW480 cells [1]) is reported as 24 h and the cell kill (HT-29 cells [2]) is reported as “less than 40%”. For the same substance, the “effect on cell cycle distribution” value (HT-29 cells [3]) was “only minimal effects on cell cycle distribution”, the “predominant effect on cell cycle (S phase)” value (HT-29 cells [3]; 2 hours and 7 hours) was “a transient block in S phase at 2 hours which almost completely reversed by 7 hours” and the “adverse events leading to removal from study” value (temporally associated with alpha-2a-interferon) was “partial complex seizure after the first dose; also recorded: bronchospastic episodes”. The “worsening of performance status” value (while on alpha-2a-interferon, by one or two levels) was “Nearly half the patients” and the cell kill (SW480 cells [4]) was “less than 40%”.

Source: patent publication US5444064A, “Method of treating gastrointestinal malignancies” (Montefiore Medical Center, priority 1989, dated 1995)
